Results from patent publication US6664231B1, “Anti-fungal peptides” (priority 1993, dated 2003).

Key:
Candida albicans SLU-1 [1] = assay: Radial diffusion assay (Example 3), wild type strain; assay type: cell-based; conditions: FIG. 2A
Method: For the radial diffusion assays, Candida albicans SLU-1 were grown as described above and SLU-2G were grown overnight in Sabouraud dextrose broth supplemented with 10 μg/mL amphotericin B and 5 μg/mL ceftriaxone at 37° C. Cultures were diluted 1:25 into fresh, unsupplemented broth and allowed to grow for 5 hours at 37° C. Cells were pelleted at 1,500×g for 5 minutes at 4° C. Supernatant was decanted and replaced with 5 mL of 10 mM phosphate buffer, pH 7.4. After centrifugation the cell pellets were resuspended with 5 mL phosphate buffer for an OD570 determination. One OD570 for SLU-1 cells was 3×10^7 CFU/mL and for SLU-2G cells was 5×10^6 CFU/mL. […]
Peptides were two-fold serially diluted with DPBS from a starting concentration of approximately 1 mg/mL. […] Plates were stained with a dilute Coomassie solution, inhibition zones were measured with calipers and net areas were calculated, then converted to pmol values by PROBIT analysis. […] The pmol for a 30 mm^2 zone of inhibition were calculated to be: for XMP.13, 689 pmol against SLU-1 and 129 pmol against SLU-2G; for XMP.37, 231 pmol against SLU-1 and 75 pmol against SLU-2G; for XMP.97, 670 pmol against SLU-1 and 161 pmol against SLU-2G; for XMP.127, 935 pmol against SLU-1 and 116 pmol against SLU-2G; for amphotericin B, 36 pmol against SLU-1 and >541 pmol for SLU-2G; and for nysttin, 98 pmol against SLU-1 and >1,215 pmol against SLU-2G.

Candida albicans SLU-1 [2] = assay: Survival of cyclosporin A-immunosuppressed mice systemically infected with Candida albicans; assay type: in vivo, mouse; conditions: cyclosporin A 10 mg/kg i.p.; 2×10^5 Candida cells; peptide 10 mg/kg, 6 doses; FIG. 7
Method: Studies were also performed to determine the effectiveness of representative anti-fungal peptides in cyclosporin A-immunosuppressed mice systemically infected with Candida albicans SLU-1. Groups (15 animals/group) of 9 week-old male DBA/2J mice were immunosuppressed by pretreatment with 10 mg/kg (Day-1) of cyclosporin A administered by intraperitoneal injection. One day later (Day 0), the mice were inoculated with 2×10^5 Candida cells by intravenous injection in the tail vein. Immediately after fungal challenge, the mice were treated with a 0.1 mL volume of 10 mg/kg XMP.284, 10 mg/kg XMP.127, or PBS as a control. Cyclosporin A injections were repeated at Day 1. Day 3. Day 7, and Day 9. XMP.284, XMP.127 or PBS injections were repeated at Day 2, Day 4, Day 6, Day 8 and Day 10. […]. […] However.

| Compound | pmol for a 30 mm^2 zone of inhibition against SLU-1 (Candida albicans SLU-1 [1]) [pmol] | protection against infection, survival compared with PBS controls (Candida albicans SLU-1 [2]) |
| --- | --- | --- |
| CC[C@H](C)[C@H](NC(=O)[C@H](CC(C)C)NC(=O)[C@H](Cc1c[nH]c2ccccc12)NC(=O)[C@H](CCCCN)NC(=O)[C@@H](NC(=O)[C@H](CCCCN)NC(=O)[C@H](CO)NC(=O)[C@@H](N)CCCCN)C(C)C)C(=O)N[C@@H](CCC(N)=O)C(=O)N[C@@H](CC(C)C)C(=O)N[C@@H](Cc1ccccc1)C(=O)N[C@@H](Cc1c[nH]cn1)C(=O)N[C@@H](CCCCN)C(=O)N[C@@H](CCCCN)C(N)=O [XMP.97] | 670 |  |
| CC[C@H](C)[C@H](NC(=O)[C@H](CC(C)C)NC(=O)[C@H](Cc1ccccc1)NC(=O)CNC(=O)[C@@H](NC(=O)[C@H](CCCCN)NC(=O)[C@H](CO)NC(=O)[C@@H](N)CCCCN)C(C)C)C(=O)N[C@@H](CCC(N)=O)C(=O)N[C@@H](CC(C)C)C(=O)N[C@@H](Cc1ccccc1)C(=O)N[C@@H](Cc1c[nH]cn1)C(=O)N[C@@H](CCCCN)C(=O)N[C@@H](CCCCN)C(N)=O [XMP.127] | 935 | to a lesser extent |
